# Measured values published in US20150141411A1, “SUBSTITUTED 3,4-DIHYDRO-2H-PYRIDO[1,2-A]PYRAZINE-1,6-DIONE DERIVATIVES USEFUL FOR THE TREATMENT OF (INTER ALIA) ALZHEIMER'S DISEASE” (Janssen Pharmaceuticals, Inc., priority 2012, published 2015).
# How the values were obtained:
# [1] = target: T1, γ-secretase (Homo sapiens, UniProt P49768); test: Screening for γ-secretase-modulating activity: Aβ42 in supernatant of SKNBE2 cells carrying hAPP 695 wild type (Alphalisa)
# Description: (§1) Screening was carried out using SKNBE2 human neuroblastoma cells carrying the hAPP 695—wild type, grown in Dulbecco's Modified Eagle's Medium/Nutrient mixture F-12 (DMEM/NUT-mix F-12) (HAM) provided by Invitrogen (cat no. 10371-029) containing 5% Serum/Fe supplemented with 1% non-essential amino acids, 1-glutamine 2 mM, Hepes 15 mM, penicillin 50 U/ml (units/ml) en streptomycin 50 μg/ml. Cells were grown to near confluency.
# (§2) The screening was performed using a modification of the assay as described in Citron et al (1997) Nature Medicine 3: 67. Briefly, cells were plated in a 384-well plate at 10^4 cells/well in Ultraculture (Lonza, BE12-725F) supplemented with 1% glutamine (Invitrogen, 25030-024), 1% non-essential amino acid (NEAA), penicillin 50 U/ml en streptomycin 50 μg/ml in the presence of test compound at different test concentrations. The cell/compound mixture was incubated overnight at 37° C., 5% CO2. The next day the media were assayed by two sandwich immuno-assays, for Aβ42 and Aβ total.
# (§3) Aβtotal and Aβ42 concentrations were quantified in the cell supernatant using the Aphalisa technology (Perkin Elmer). Alphalisa is a sandwich assay using biotinylated antibody attached to streptavidin coated donorbeads and antibody conjugated to acceptor beads. In the presence of antigen, the beads come into close proximity. The excitation of the donor beads provokes the release of singlet oxygen molecules that trigger a cascade of energy transfer in the acceptor beads, resulting in light emission. To quantify the amount of Aβ42 in the cell supernatant, monoclonal antibody specific to the C-terminus of Aβ42 (JRF/cAβ42/26) was coupled to the receptor beads and biotinylated antibody specific to the N-terminus of Aβ (JRF/AβN/25) was used to react with the donor beads. To quantify the amount of Aβtotal in the cell supernatant, monoclonal antibody specific to the N-terminus of Aβ (JRF/AβN/25) was coupled to the receptor beads and biotinylated antibody specific to the mid region of Aβ (biotinylated 4G8) was used to react with the donor beads.
# (§4) To obtain the values reported in Table 3, the data are calculated as percentage of the maximum amount of amyloid Beta 42 measured in the absence of the test compound. The sigmoidal dose response curves were analyzed using non-linear regression analysis with percentage of the control plotted against the log concentration of the compound. A 4-parameter equation was used to determine the IC50.
# [2] = target: T1, γ-secretase; test: Screening for γ-secretase-modulating activity: Aβtotal in supernatant of SKNBE2 cells carrying hAPP 695 wild type (Alphalisa)
# Description: as §1, §2, §3, §4
# [3] = read-out: IC50 Aβ42, SKNBE2 human neuroblastoma cells carrying hAPP 695 wild type, overnight incubation, Aβ42 in cell supernatant
# [4] = read-out: IC50 Aβtotal, SKNBE2 human neuroblastoma cells carrying hAPP 695 wild type, overnight incubation, Aβtotal in cell supernatant
# [5] = read-out: IC50 Aβ42, SKNBE2 human neuroblastoma cells carrying hAPP 695 wild type, overnight incubation, Aβ42 in cell supernatant, tested form: hydrochloride
# [6] = read-out: IC50 Aβtotal, SKNBE2 human neuroblastoma cells carrying hAPP 695 wild type, overnight incubation, Aβtotal in cell supernatant, tested form: hydrochloride
"IC50 [1, 3]","IC50 [2, 4]","IC50 [1, 5]","IC50 [2, 6]",SMILES
1620 nM,> 10000 nM,–,–,Cc1cn(-c2ccc3n(c2=O)C[C@@H](c2ccccc2)N(Cc2ccc(Cl)c(Cl)c2)C3=O)cn1
490 nM,> 10000 nM,–,–,Cc1cn(-c2ccc3n(c2=O)C[C@@H](C(C)C)N(Cc2ccc(Cl)c(Cl)c2)C3=O)cn1
110 nM,> 10000 nM,–,–,"Cc1cn(-c2ccc3n(c2=O)C[C@@H](C)N(C(C)c2cc(Cl)cc(C(F)(F)F)c2)C3=O)cn1 (single isomer, unassigned) [129]"
170 nM,> 10000 nM,–,–,Cc1cn(-c2ccc3n(c2=O)CCN(CC2(c4cccc(C(F)(F)F)c4Cl)CC2)C3=O)cn1
130 nM,> 10000 nM,–,–,Cc1cn(-c2ccc3n(c2=O)CCN(C(C)c2cc(C(F)(F)F)cc(C(F)(F)F)c2)C3=O)cn1 (stereo not shown)
910 nM,> 6030 nM,–,–,Cc1cn(-c2ccc3n(c2=O)CCN(CCc2ncc(-c4ccc(Cl)cc4)o2)C3=O)cn1
–,–,110 nM,> 10000 nM,"Cc1cn(-c2ccc3n(c2=O)C[C@@H](C)N(C(C)c2cc(F)cc(OC(F)(F)F)c2)C3=O)cn1 (single isomer, unassigned) [126]"
9550 nM,9770 nM,–,–,Cc1cn(-c2ccc3n(c2=O)CC(C2CCOCC2)N(Cc2ccc(Cl)c(Cl)c2)C3=O)cn1 (stereo not shown)
70 nM,> 10000 nM,–,–,Cc1cn(-c2ccc3n(c2=O)C[C@@H](C)N(Cc2ccc(C)c(N4CCCCC4)c2)C3=O)cn1
380 nM,> 10000 nM,–,–,"Cc1cn(-c2ccc3n(c2=O)CCN(C(C)c2ccc(Cl)c(Cl)c2)C3=O)cn1 (single isomer, unassigned)"
–,–,140 nM,> 10000 nM,"Cc1cn(-c2ccc3n(c2=O)C[C@@H](C)N(C(C)c2cc(F)cc(OC(F)(F)F)c2)C3=O)cn1 (single isomer, unassigned) [175]"
680 nM,> 10000 nM,–,–,Cc1cn(-c2ccc3n(c2=O)CCN(C(C)c2ccc(Cl)c(Cl)c2)C3=O)cn1 (racemic)
–,–,180 nM,> 10000 nM,"Cc1cn(-c2ccc3n(c2=O)C[C@@H](C)N(C(C)c2cc(F)cc(OC(F)(F)F)c2)C3=O)cn1 (single isomer, unassigned) [127]"
630 nM,> 10000 nM,–,–,Cc1cn(-c2ccc3n(c2=O)C[C@H](C)N(Cc2cc(C(F)(F)F)cc(C(F)(F)F)c2)C3=O)cn1
